## Permeability data for macrocyclic peptides

Source: CycPeptMPDB (Li et al. 2023), which took these values from Naylor et al. 2018, doi:10.1021/acs.jmedchem.8b01259.

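Conditions beyond the assay type are not listed; see the original paper. Other peptides of the study may be missing here. Peptides that the database sets to -10, its floor, are left out.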

PAMPA is the parallel artificial membrane permeability assay, which has no cells and reads passive diffusion.
RRCK values come from monolayers of low-efflux MDCK cells.
P is given in units of 10^-6 cm/s (from log10 values with two decimals); larger means faster passage.

- CC(C)C[C@@H]1NC(=O)[C@H](CC(C)C)N(C)C(=O)[C@@H](C)N(C)C(=O)[C@H](CC(C)C)NC(=O)[C@H](Cc2ccccc2)N(C)C(=O)[C@@H](C)N(C)C1=O: PAMPA 8.5 × 10^-6 cm/s; RRCK 23 × 10^-6 cm/s
- CC(C)C[C@@H]1NC(=O)[C@H](CC(C)C)N(C)C(=O)[C@@H](CC(C)C)N(C)C(=O)[C@H](CC(C)C)NC(=O)[C@H](Cc2ccccc2)N(C)C(=O)[C@@H](C)N(C)C1=O: PAMPA 0.46 × 10^-6 cm/s; RRCK 13 × 10^-6 cm/s
- CC(C)C[C@@H]1NC(=O)[C@H](CC(C)C)N(C)C(=O)[C@@H](CC(C)C)N(C)C(=O)[C@H](C)NC(=O)[C@H](Cc2ccccc2)N(C)C(=O)[C@H]2CCCN2C1=O: PAMPA 9.3 × 10^-6 cm/s; RRCK 25 × 10^-6 cm/s
- CC(C)C[C@@H]1NC(=O)[C@H](Cc2ccc(O)cc2)N(C)C(=O)[C@H]2CCCN2C(=O)[C@H](CC2CCCCC2)NC(=O)[C@H](CC2CCCCC2)N(C)C(=O)[C@@H](CC(C)C)N(C)C1=O: PAMPA 0.074 × 10^-6 cm/s; RRCK 0.32 × 10^-6 cm/s
- CC[C@@H]1C(=O)N(C)[C@@H](CC(C)C)C(=O)N[C@@H](CC(C)C)C(=O)N2CCC[C@@H]2C(=O)N(C)[C@@H](Cc2ccc(O)cc2)C(=O)N[C@@H](CC(C)C)C(=O)N1C: PAMPA 8.1 × 10^-6 cm/s; RRCK 16 × 10^-6 cm/s
- CC[C@H]1C(=O)N[C@@H](CC(C)C)C(=O)N2CCC[C@@H]2C(=O)N(C)[C@@H](Cc2ccccc2)C(=O)N[C@@H](CC(C)C)C(=O)N(C)[C@H](C)C(=O)N1C: RRCK 24 × 10^-6 cm/s
- CC(C)C[C@@H]1NC(=O)[C@H](C)NC(=O)[C@H](Cc2ccc(O)cc2)N(C)C(=O)[C@H](Cc2ccccc2)NC(=O)CN(C)C(=O)[C@@H]2CCCN2C(=O)[C@@H](Cc2ccccc2)N(C)C1=O: PAMPA 0.18 × 10^-6 cm/s; RRCK 0.59 × 10^-6 cm/s
- CC(C)C[C@@H]1NC(=O)[C@H](Cc2ccccc2)NC(=O)[C@H]2CCCN2C(=O)[C@H](CC2CCCCC2)NC(=O)[C@H](CC2CCCCC2)NC(=O)[C@@H](C)NC1=O: PAMPA 4.6 × 10^-6 cm/s; RRCK 4.1 × 10^-6 cm/s
- CC[C@H]1NC(=O)[C@H](CC(C)C)NC(=O)[C@H](Cc2ccc(O)cc2)NC(=O)[C@H]2CCCN2C(=O)[C@H](CC(C)C)NC(=O)[C@H](CC(C)C)NC1=O: PAMPA 0.55 × 10^-6 cm/s; RRCK 0.91 × 10^-6 cm/s
- CC[C@H]1NC(=O)[C@H](CC(C)C)NC(=O)[C@H](Cc2ccccc2)NC(=O)[C@H]2CCCN2C(=O)[C@H](CC(C)C)NC(=O)[C@H](C)NC1=O: PAMPA 0.72 × 10^-6 cm/s; RRCK 3 × 10^-6 cm/s
- CC[C@@H]1C(=O)N(C)[C@@H](CC)C(=O)N[C@@H](CC(C)C)C(=O)N2CCC[C@@H]2C(=O)N(C)[C@@H](Cc2ccccc2)C(=O)N[C@@H](CC(C)C)C(=O)N1C: PAMPA 10 × 10^-6 cm/s; RRCK 32 × 10^-6 cm/s
- CC[C@@H]1NC(=O)[C@@H](CC(C)C)NC(=O)[C@H](CC(C)C)NC(=O)[C@H](Cc2ccccc2)NC(=O)[C@H]2CCCN2C(=O)[C@H](CC(C)C)NC1=O: PAMPA 4.3 × 10^-6 cm/s; RRCK 7.6 × 10^-6 cm/s
- CC[C@H]1NC(=O)[C@H](CC(C)C)NC(=O)[C@H](Cc2ccc(O)cc2)NC(=O)[C@H]2CCCN2C(=O)[C@H](CC2CCCCC2)NC(=O)[C@H](CC2CCCCC2)NC1=O: PAMPA 8.1 × 10^-6 cm/s; RRCK 1.4 × 10^-6 cm/s
- CC(C)C[C@@H]1NC(=O)[C@H](Cc2ccc(O)cc2)NC(=O)[C@H]2CCCN2C(=O)[C@H](CC2CCCCC2)NC(=O)[C@H](CC2CCCCC2)NC(=O)[C@@H](CC(C)C)NC1=O: PAMPA 4.4 × 10^-6 cm/s; RRCK 1.1 × 10^-6 cm/s
- CC(C)C[C@@H]1NC(=O)[C@H](Cc2ccc(O)cc2)NC(=O)[C@H]2CCCN2C(=O)[C@H](CC(C)C)NC(=O)[C@H](CC2CCCCC2)NC(=O)[C@@H](CC(C)C)NC1=O: PAMPA 8.1 × 10^-6 cm/s; RRCK 1.8 × 10^-6 cm/s
- CC[C@@H]1C(=O)N(C)[C@@H](CC)C(=O)N[C@@H](CC(C)C)C(=O)N2CCC[C@@H]2C(=O)N(C)[C@@H](Cc2ccc(O)cc2)C(=O)N[C@@H](CC(C)C)C(=O)N1C: PAMPA 7.9 × 10^-6 cm/s; RRCK 17 × 10^-6 cm/s

2 of these entries, quoted again:

* CC[C@@H]1NC(=O)[C@@H](CC(C)C)NC(=O)[C@H](CC(C)C)NC(=O)[C@H](Cc2ccccc2)NC(=O)[C@H]2CCCN2C(=O)[C@H](CC(C)C)NC1=O: PAMPA 4.3 × 10^-6 cm/s; RRCK 7.6 × 10^-6 cm/s
* CC(C)C[C@@H]1NC(=O)[C@H](CC(C)C)N(C)C(=O)[C@@H](CC(C)C)N(C)C(=O)[C@H](C)NC(=O)[C@H](Cc2ccccc2)N(C)C(=O)[C@H]2CCCN2C1=O: PAMPA 9.3 × 10^-6 cm/s; RRCK 25 × 10^-6 cm/s